System: Human umbilical Mesenchymal Stem Cells (MSC)
Assay: Loading of UC-MSC in suspension with fluorescently labelled iron-binding protein complexes, flow cytometry
Format: cell-based
Details: MSC at passage five loaded with 0.6 mg/ml
Method: Umbilical Cord Mesenchymal Stem cells (UC-MSC) were cultured in DMEM 1000, 1:100 penicillin/streptomycin, 20% FBS, 8 ng/ml bFGF. Media was changed every 2 days. Experiments were carried out on UC-MSCs at passage 5.
Ferritin and haemoglobin complexes were produced as described in WO 2016/207257 (see in particular Examples 5 and 6).
Human UC-MSCs were loaded in suspension with fluorescently labelled haemoglobin-Alexa488, ferritn-Alexa488 or ferritin loaded with anticancer drug doxorubicin (ferritin-doxorubicin) as follows: UC-MSCs were detached from culture dish with 0,25% Trypsin-EDTA then cells were mixed with 0,6 mg/ml of haemoglobin-Alexa488, ferritn-Alexa488 and ferritn-doxorubicin in PBS to final cell density 10^6 per ml. Next cells were incubated for 1 hour at 37 °C, 5% CO2 and washed once in PBS afterwards. Cells were immediately used to set up co-culture with cancer cells.

Substance: Ferritin-Alexa488: fluorescently labelled ferritin-Alexa488, produced as described in WO 2016/207257
- efficacy of loading of MSC: ≥ 95%
- mean fluorescence intensity in loaded MSC cells versus control group (fold higher than control group): 3 times
